Assay results as given in ChEMBL document CHEMBL1154777, “Univalent and bivalent ligands of butorphan: characteristics of the linking chain determine the affinity and potency of such opioid ligands” (J Med Chem, 2009).

Organism: Homo sapiens
Assay: Selectivity ratio of Ki for human mu opioid receptor to Ki for human kappa opioid receptor

## Oc1ccc2c(c1)[C@@]13CCCC[C@H]1[C@@H](C2)N(CC1CCC1)CC3
  Ratio Ki: 3
